A549 tox = kills or reduces viability of A549 cells in Nrf2 counter-screen; A549 ARE-Fluc cells, CellTiter-Fluor viability, 18-24 h; Potency, µM (titrated, usually from 46 µM), actives largely listed as inhibitors; AID 504648; 390,000 compounds, 0.16% hits
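A549 ARE_Fluc cells in 5% FBS OPTI-MEM were exposed to compounds in concentration-response for 18-24 h at 37 deg C. Viability was read by CellTiter-Fluor fluorescence (Ex 405/Em 525) after 30 min, before the luciferase read.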
ClpP mod = qHTS Assay for Activators of ClpP. ATP-dependent Clp protease proteolytic subunit (Bacillus subtilis (strain 168)), P80244. purified B. subtilis ClpP, FRET peptide cleavage, 20 min. Potency, µM (top dose mostly 57.5 µM). 340,000 compounds, 1.9% hits. AID 651965, 2013; active = well fitted falling curve with a large enough effect; inconclusive = small, poorly fitted or top-dose-only effect; inactive = no such curve, though single readings can be large or run the other way; note: the source files actives as falling curves though it sought activators and does not explain the sign; nearly all actives have a fitted effect of over 65% in size
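Purified B. subtilis ClpP, 10 microg/mL final in Tris/HCl pH8 with KCl, BSA, glycerol and Tween-20, cleaved an Abz/nitrotyrosine-quenched decapeptide. Fluorescence (ex 320, em 430) was read at 0 and 20 min at room temperature. Delta was normalized to 5.8 microM ADEP and DMSO/no-enzyme controls.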
IL-2 act = IL-2 activation. IL-2 activation reporter assay, cell-based qHTS; stimulated with anti-CD3/CD4/CD28 beads; in transgenic mouse T cells. activation, % (series mostly up to about 46 µM). 360,000 compounds, 0.065% hits; in the data active = activation above about 50%; inconclusive = mostly about 30% to 49%
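Using fluorescent plate cytometry, EGFP and DsRed are detected in transgenic mouse T cells stimulated 18 h at 37 degrees C with antibody-coated beads after 60 min compound pretreatment.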
miR-21 reporter = miR-21 reporter, rising signal; HeLa miR-21 FLuc reporter, luciferase, 48 h; Potency, µM (titrated, usually from 38.3 µM); 340,000 tested, under 10 active; AID 2288; active = well fitted rising curve with a large enough effect; inconclusive = small, poorly fitted or top-dose-only effect; inactive = no such curve, though single readings can be large or run the other way;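 also: miR-21 action dims this reporter so a rising signal means less miR-21 action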
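HeLa miR-21-FLuc reporter line, endogenous miR-21; 2000 cells/well in DMEM/10% FBS; compound titration up to ~40uM final, 48 h, 37 degree Celsius; luciferase detection reagent, 15 min lysis, CCD luminescence.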
Nrf2 ARE act = activators of Nrf2 (ARE) signaling | 410,000 compounds, 0.31% hits | Potency, µM (highest dose often 46.1 µM), hits mostly activators | AREc32 ARE-luciferase reporter (MCF7-derived line), luminescence, 24 h | AID 624171; note: nearly all actives have a fitted effect of over 65% in size
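AREc32 cells carrying an ARE-driven firefly luciferase reporter were seeded at 1000 cells/well in OPTI-MEM with 5% FBS, then exposed to compound for 24 hr at 37 deg C. Luminescence was read with Steady-Glo after 30 min at RT.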
Nrf2 inh = inhibitors of Nrf2 signaling; 360,000 compounds, 2.1% hits; Potency, µM (series often up to 46 µM), actives largely listed as inhibitors; A549 ARE-Fluc reporter, luciferase luminescence, 18-24 h; note: nearly all actives have a fitted effect of over 60% in size
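Concentration-response testing used A549 ARE_Fluc cells at 5000 cells/well. Following an 18-24 h compound incubation, viability was read by fluorescence (Ex 405/Em 525) and luciferase output by luminescence.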
A number is an active result; i = inactive; ? = inconclusive; nt = no result given; [ ] = remark or other dose. An excerpt weighted towards active compounds, which were near 3.7% of everything screened. Unless noted, calls come from the whole dose curve; as a rule, active = well fitted curve in the direction sought with a large enough effect; inconclusive = small, poorly fitted or top-dose-only effect, or another doubt; inactive = no such curve, though single readings can be large; an effect the other way counts as inactive or inconclusive.

SMILES | A549 tox | ClpP mod | IL-2 act | miR-21 reporter | Nrf2 ARE act | Nrf2 inh
CSc1cccc(NC(=O)c2ccc(CN3CCc4ccccc4C3)cc2)c1 | i | nt | i | i | i | ?
C[n+]1ccnc2cc(Cl)ccc21 | nt | i | nt | nt | nt | nt
Cc1cccn2cc(CNS(=O)(=O)c3ccc4ccccc4c3)nc12 | i | i | i | i | i | 13µM
O=C(Nc1sc2c(c1C(=O)NCc1ccccc1)CCCC2)c1cc(=O)c2cc(Cl)ccc2o1 | i | i | nt | i | i | i
CC(=O)Nc1ccc(S(=O)(=O)Nc2ccc(C)c(C)c2)cc1 | i | nt | nt | nt | nt | ?
Cn1cc(CN2CCCC(C(=O)Nc3cccc(-c4cc5ccccc5[nH]4)c3)C2)cn1 (stereo unspecified) | ? | i | i | i | i | 23.1µM
CC(C)n1cc(CN2CCCC(C(=O)Nc3cccc(-c4cc5ccccc5[nH]4)c3)C2)cn1 (stereo unspecified) | i | nt | i | ? | i | i
Cc1cc(C)cc(NS(=O)(=O)c2csc(C(N)=O)c2)c1 | i | nt | i | i | i | ?
O=C(Nc1ccc(F)cc1)c1cc(S(=O)(=O)Nc2ccc(F)cc2)cs1 | ? | i | i | i | i | 18.4µM
O=C(Nc1ccc(F)cc1)c1cc(S(=O)(=O)N2CCOCC2)cs1 | i | i | i | i | i | i
O=C(Nc1ccc(Cl)cc1)c1cc(S(=O)(=O)N2CCOCC2)cs1 | ? | i | i | i | i | 4.61µM
CC(C)Oc1ccc(CNS(=O)(=O)c2csc(C(N)=O)c2)cc1 | i | i | i | i | i | 14.6µM
Cc1ccc(NS(=O)(=O)c2csc(C(N)=O)c2)cc1C | i | i | i | i | i | 16.4µM
Cc1ccc(NC(=O)c2cc(S(=O)(=O)N3CCOCC3)cs2)cc1 | i | i | i | i | i | i
Cc1ccc(NC(=O)c2cc(S(=O)(=O)N3CCCCC3)cs2)cc1 | i | i | i | i | i | 8.2µM
CCCC(=O)Nc1ccccc1OCc1cc(=O)n2cc(C)ccc2n1 | i | 28.2µM | nt | i | i | nt
Cc1ccc2nc(COc3ccccc3NC(=O)COc3ccccc3Cl)cc(=O)n2c1 | i | i | nt | i | i | nt
c1ccc2c(c1)Cn1c-2nc2ccccc21 | i | 25.1µM | i | i | i | ?
Cc1cc(C)n(-c2ccc3cccc(NS(C)(=O)=O)c3n2)n1 | i | i | i | i | i | 5.17µM
CS(=O)(=O)Nc1cccc2cccnc12 | i | i | i | i | ? | i
CC12CCC(=O)N1C(C(=O)Nc1ccc(S(=O)(=O)N3CCCCC3)cc1)CS2 (stereo unspecified) | i | i | i | nt | i | i
CC12CCC(=O)N1C(C(=O)Nc1cccc(S(=O)(=O)N3CCCCCC3)c1)CS2 (stereo unspecified) | i | 28.2µM | i | nt | i | ?
Cc1ccc(NC(=O)C2CSC3(C)CCC(=O)N23)cc1S(=O)(=O)N1CCCCCC1 (stereo unspecified) | i | i | i | nt | i | 16.4µM
Cc1ccc(NC(=O)C2CSC3(C)CCC(=O)N23)cc1S(=O)(=O)N1CCOCC1 (stereo unspecified) | i | i | i | nt | i | i
Cc1ccc(-c2cn3c(n2)sc2cc(C(=O)NC(C)C45CC6CC(CC(C6)C4)C5)ccc23)cc1 (stereo unspecified) | i | i | nt | i | i | i
SMILES | A549 tox | ClpP mod | IL-2 act | miR-21 reporter | Nrf2 ARE act | Nrf2 inh
O=C(N/N=C/c1cn(-c2cccs2)nc1-c1ccccc1)c1ccccc1Cl | i | 22.4µM | i | i | i | i
Cc1cc2c(Nc3ccccc3O)ncnc2s1 | nt | i | i | nt | 11.2µM | nt
Cc1cc2c(Nc3cccc(O)c3)ncnc2s1 | i | i | i | i | i | i
CC(C)OC(=O)c1cccc2c1C(=O)c1ccccc1-2 | i | nt | i | i | 11.2µM | i
COc1cccc(C)c1NC(=O)C(OC(=O)CNC(=O)c1ccccc1)c1ccccc1 (stereo unspecified) | i | nt | nt | nt | nt | i
CCOCc1cc(CN2CCN(c3cccc(C(F)(F)F)c3)CC2)c(O)c2ncccc12 | i | i | nt | i | i | ?
CC(C)OCc1cc(CN2CCN(c3cccc(C(F)(F)F)c3)CC2)c(O)c2ncccc12 | i | i | nt | ? | i | 16.4µM
S=C(Nc1ccccc1)Nc1ccc(OCc2ccc(Cl)cc2Cl)cc1 | i | i | i | ? | i | 18.4µM
O=C(Nc1ccc([N+](=O)[O-])cc1)/C(=C/c1cccc([N+](=O)[O-])c1)NC(=O)C1CCCCC1 | i | i | i | i | i | i
Cc1ccc(NC(=O)/C(=C/c2cccc([N+](=O)[O-])c2)NC(=O)C2CCCCC2)c(C)c1 | i | i | i | i | i | 9.2µM
COC(=O)Cc1[nH]nc2c1C(c1cccc(OC)c1OC)C(C#N)=C(N)O2 (stereo unspecified) | i | 28.2µM | i | i | i | i
CCOC(=O)Cc1[nH]nc2c1C(c1cccc(OC)c1OC)C(C#N)=C(N)O2 (stereo unspecified) | i | i | i | i | i | i
Cc1sc2nc(CSc3ccccc3)nc(N3CCN(C)CC3)c2c1C | ? | i | i | i | i | i
COCCNc1nc(CSc2ccccc2)nc2sc(C)c(C)c12 | i | 28.2µM | i | i | i | i
CCOC(=O)c1ccccc1NC(=O)N1CCCn2nc(C)cc21 | i | i | nt | i | i | i
Cc1c(OC(C)C(=O)NCc2ccccn2)ccc2c3c(c(=O)oc12)CCC3 (stereo unspecified) | i | i | i | i | i | i
Cc1c(OC(C)C(=O)NCc2ccncc2)ccc2c3c(c(=O)oc12)CCCC3 (stereo unspecified) | i | i | i | i | i | 23.1µM
CCOc1c(OC)ccc2c3c(c(=O)oc12)CCCC3 | i | ? | i | i | i | nt
Cc1c(OCc2ccc(C(=O)O)o2)ccc2c3c(c(=O)oc12)CCC3 | i | 3.16µM | i | i | i | i
COc1ccc2c3c(c(=O)oc2c1OCC(=O)O)CCCC3 | i | 20µM | i | i | i | i
COCCCNC(=O)Cn1cnc2sc(C)c(S(=O)(=O)N3CCC(C)CC3)c2c1=O | i | i | nt | i | i | i[9.27 µM]
CCOC(=O)c1nc(Nc2ccc(C(=O)OCC(C)C)cc2)c2ccccc2n1 | i | i | nt | i | i | i
CCC(=NCc1ccccc1)C1=C(O)C(C(=O)OC)C(C)(C)CC1=O (stereo unspecified) | i | 3.16µM | i | i | i | nt
CCS(=O)(=O)c1ncc(Cl)c(C(=O)N(Cc2ccccc2)Cc2ccco2)n1 | 16.4µM | i | nt | ? | ? | 23.1µM
CCSc1ncc(Cl)c(C(=O)N(Cc2ccc(N(C)C)cc2)Cc2ccco2)n1 | i | i | nt | i | i | 18.4µM
Cc1ccc(C(=O)N(Cc2ccc(N(C)C)cc2)Cc2ccco2)cc1 | i | i | nt | i | i | ?

From PubChem BioAssay
